The target of this test is T1, wild-type (wt) DHFR from Plasmodium falciparum (Plasmodium falciparum, UniProt P13922, N108S/R59C).
T1 construct: The Dihydrofolate Reductase Domain of Plasmodium falciparum Thymidylate Synthase-Dihydrofolate Reductase; made in house
The test can be described thus: Inhibition of wild-type pfDHFR (spectrophotometric, Ki).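 Note: Affinity-purified enzyme, initial reaction rates measured across a range of inhibitor concentrations, Ki obtained by nonlinear least-squares fitting.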 As to conditions: Ki(wt) nM. Type of test: biochemical.

By UniProt entry, the sequences of proteins in these tests, tags left out. Residues count along the entry.
UniProt P13922, 10-228 R59C/N108S: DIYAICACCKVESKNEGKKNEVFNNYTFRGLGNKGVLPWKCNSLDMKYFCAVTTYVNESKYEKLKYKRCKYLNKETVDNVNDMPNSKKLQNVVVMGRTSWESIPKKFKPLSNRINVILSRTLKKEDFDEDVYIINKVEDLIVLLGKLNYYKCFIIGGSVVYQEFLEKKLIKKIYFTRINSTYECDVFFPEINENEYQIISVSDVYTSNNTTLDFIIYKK

Where a name gives a salt, the structure may show the parent alone.

One may read the Ki as the dissociation constant of the complex between target and ligand, obtained from inhibition or displacement. High values mean a looser hold on the target, low ones a stronger hold on the target.

Consider `NC1=NC(c2ccccc2)N(c2ccc(Cl)cc2)C(N)=N1` (centres unmarked) [(Ia) R2=phenyl, 1-(4′-Chlorophenyl)-2-phenyl-4,6-diamino-1,2-dihydro-1,3,5-triazine hydrochloride], for which the Ki was 4.5 ± 0.2 nM.
The same measure for `CCCOc1ccc(C2N=C(N)N=C(N)N2c2cccc(Cl)c2)cc1` (centres unmarked) [(Ib) R2=4-(n-propyloxy)phenyl]: 3.3 ± 0.4 nM.

(Values after US20030203908A1, “Dihydrofolate reductase inhibitors” (priority 2000, published 2003).)
